This assay has as its target CHRM1 (Homo sapiens, UniProt P11229).

The chains behind the UniProt entries cited, without tags or fusion partners. Where a name states a change or a piece, a line headed by the entry shows the natural chain unless it says otherwise.
UniProt P11229: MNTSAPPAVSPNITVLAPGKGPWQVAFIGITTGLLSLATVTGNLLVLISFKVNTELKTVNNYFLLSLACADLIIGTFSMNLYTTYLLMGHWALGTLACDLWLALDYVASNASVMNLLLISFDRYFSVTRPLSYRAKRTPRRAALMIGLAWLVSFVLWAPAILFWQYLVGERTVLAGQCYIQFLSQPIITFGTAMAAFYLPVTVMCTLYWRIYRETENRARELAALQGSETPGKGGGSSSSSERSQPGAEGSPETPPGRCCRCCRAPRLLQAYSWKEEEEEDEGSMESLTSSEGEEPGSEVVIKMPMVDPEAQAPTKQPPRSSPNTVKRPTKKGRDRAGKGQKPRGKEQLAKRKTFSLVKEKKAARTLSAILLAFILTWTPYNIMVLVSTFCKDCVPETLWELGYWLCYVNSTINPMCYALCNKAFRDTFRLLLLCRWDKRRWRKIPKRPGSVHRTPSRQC

As to `CCCCCCOc1nsnc1C1=CCCN(C)C1` [xanomeline], the “agonist type identified by polony co-localization ratios” value is listed as “allosteric”.
